Laboratory results taken from paper PMC3822589 (Journal of Cellular and Molecular Medicine, 2013).

How the values were obtained:
[1] = test system: Jak2V617F phosphorylation (P-Jak2) in HEL cells; assay: Western blot of phospho-Jak2 in HEL cells; type: cell-based, human; conditions: 0.5, 1 or 5 μM, 3 hrs
[2] = test system: Jak3A572V phosphorylation (P-Jak3) in CMK cells; assay: Western blot of phospho-Jak3 in CMK cells; type: cell-based; conditions: 0.5, 1 or 5 μM, 3 hrs

Q: Which results are given for `C[C@@H]1CCN(C(=O)CC#N)C[C@@H]1N(C)c1ncnc2[nH]ccc12` [CP690,550, Tofacitinib]?
A: effect on phosphorylation of Jak2 [1]: Hyper-phosphorylation of Jak2V617F; effect on phosphorylation of Jak3A572V [2]: hyper-phosphorylation of Jak3A572V
